Apparent affinities of Ab-95 variants for a coronavirus HR2 peptide

The target is the same throughout: PDVDLGDISGINAS, from the HR2 region of SARS-CoV-2 spike.

Parent: Ab-95, a human scFv built as VH, a (GGGGS)3 linker, VL. Only the CDRs of the light chain vary.
VH: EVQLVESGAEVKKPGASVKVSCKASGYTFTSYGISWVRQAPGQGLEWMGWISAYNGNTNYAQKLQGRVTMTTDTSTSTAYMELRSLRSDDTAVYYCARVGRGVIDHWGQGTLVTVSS
VL: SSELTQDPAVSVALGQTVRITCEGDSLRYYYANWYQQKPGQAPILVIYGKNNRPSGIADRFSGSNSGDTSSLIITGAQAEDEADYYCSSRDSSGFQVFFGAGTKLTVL

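The starting antibody came from a phage panning campaign against this peptide. In library AAYL52, one, two or three CDR residues were substituted; doubles and triples were drawn at random. Affinity was read by AlphaSeq, a pooled yeast mating assay with surface-displayed partners. After mating in shaken culture at 30 °C for 16 h, diploids were selected and their barcode pairs sequenced. A regression on co-assayed BCL2-family reference pairs converts the normalised counts of each replicate to an apparent Kd. Each pool was mated in three replicate cultures.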

Substitutions are numbered in sequence along the VL above, starting at 1 (not Kabat). The read-out is the apparent dissociation constant on a log10 scale (nM): the lower, the stronger. Averages over replicates are reported, and they cover detected replicates only. Where no diploid with the target was found in that replicate, the entry reads "ND": below detection, most likely a poor binder, though not proof of it. For reference, the parent read 2.31 as the reference entry and 2.25 as a member of this library.

log10 Kd (nM) by replicate,mean log10 Kd (nM),control signals,changes
ND / ND / ND,ND,2/9 (3.51),N33I/F95R
4.85 / 4.42 / 3.25,4.17,4/9 (3.41),S26A/A32L/R90C
2.49 / 2.71 / 2.55,2.58,2/9 (3.68),Y31L/N52R/S55E
1.33 / 1.52 / 1.00,1.29,4/9 (3.85),Y29R/Y30T/N52T
ND / 4.36 / 3.11,3.73,1/9 (4.56),L27N/Y30R/A32Q
2.40 / 1.93 / 2.81,2.38,3/9 (3.91),S92P/G94F/F98P
3.00 / 3.89 / 3.35,3.41,5/9 (4.60),E23H/R53W
2.70 / 2.44 / 2.06,2.40,4/9 (3.99),K50G/S55E/S89H
3.00 / 5.49 / ND,4.25,1/9 (3.77),E23A/R28Q/P54H
3.42 / 4.22 / 3.61,3.75,5/9 (3.61),R28Y/A32I/F98G
4.85 / 5.49 / ND,5.17,5/9 (3.63),N52G/S55W/G94R
2.90 / 2.43 / 2.56,2.63,1/9 (4.55),R28Q/K50I
3.98 / ND / ND,3.98,1/9 (3.48),L27K/A32S/N33L
2.63 / 3.13 / 2.13,2.63,4/9 (3.80),S26Q/Y31N/K50I
ND / 4.05 / ND,4.05,0/9,L27S/G49F/D91K
2.72 / 2.58 / 3.88,3.06,1/9 (3.39),R28F/N52A/F95K
2.90 / ND / 2.88,2.89,3/9 (3.46),Y29G/D91P/F95Q
3.34 / 3.17 / ND,3.25,1/9 (4.52),R28Q/A32K/S55K
2.25 / 2.08 / 2.10,2.15,5/9 (4.01),Y30V/F98Y
3.93 / 3.56 / 2.65,3.38,2/9 (3.17),E23H/G49R/S92C
4.36 / 5.02 / ND,4.69,5/9 (4.34),F95M/Q96I/V97W
2.83 / 3.40 / 2.95,3.06,1/9 (4.53),Y29D/K50R/Q96T
2.89 / 3.63 / 2.85,3.12,2/9 (3.73),E23T/L27V/F95G
4.99 / 5.52 / ND,5.25,3/9 (3.40),L27P/R28A/S92M
ND / ND / ND,ND,1/9 (3.35),G24H/Y31C/G49F
ND / 3.65 / ND,3.65,3/9 (3.40),A32L/G49M/K50Q
2.54 / 2.37 / 2.55,2.49,2/9 (5.10),L27V/Y31A/S92M
4.18 / 4.55 / 4.03,4.25,3/9 (3.88),S55N/R90M/S93R
3.54 / 2.99 / 2.55,3.03,2/9 (4.29),R53T/R90N
3.19 / 3.89 / 4.33,3.80,3/9 (4.07),G24F/N33G/V97N
2.01 / 2.45 / 2.64,2.37,2/9 (3.51),S88W/G94S/F98T
2.91 / 2.55 / 2.19,2.55,3/9 (4.45),G24R/P54A/S92Y
4.67 / ND / 2.77,3.72,2/9 (3.60),A32Q/N33S/S55R
4.37 / ND / ND,4.37,0/9,E23W/L27D/S88R
4.18 / 4.06 / ND,4.12,5/9 (3.82),L27G/N33C/K50S
5.50 / 4.82 / 3.25,4.52,6/9 (3.82),G94C/F95M
2.16 / 2.47 / 1.67,2.10,4/9 (3.58),L27W/S89C/S92R

Excerpt, the first 6 entries:

{"changes": "N33I/F95R", "log10 Kd (nM) by replicate": "ND / ND / ND", "mean log10 Kd (nM)": "ND", "control signals": "2/9 (3.51)"}
{"changes": "S26A/A32L/R90C", "log10 Kd (nM) by replicate": "4.85 / 4.42 / 3.25", "mean log10 Kd (nM)": "4.17", "control signals": "4/9 (3.41)"}
{"changes": "Y31L/N52R/S55E", "log10 Kd (nM) by replicate": "2.49 / 2.71 / 2.55", "mean log10 Kd (nM)": "2.58", "control signals": "2/9 (3.68)"}
{"changes": "Y29R/Y30T/N52T", "log10 Kd (nM) by replicate": "1.33 / 1.52 / 1.00", "mean log10 Kd (nM)": "1.29", "control signals": "4/9 (3.85)"}
{"changes": "L27N/Y30R/A32Q", "log10 Kd (nM) by replicate": "ND / 4.36 / 3.11", "mean log10 Kd (nM)": "3.73", "control signals": "1/9 (4.56)"}
{"changes": "S92P/G94F/F98P", "log10 Kd (nM) by replicate": "2.40 / 1.93 / 2.81", "mean log10 Kd (nM)": "2.38", "control signals": "3/9 (3.91)"}

Background: pairings of library AAYL52 with three empty control strains gave a value in 28% of cases (median 3.91, 5th percentile 2.90). Values in that range, when seen in few replicates, are hard to tell from nonspecific mating. The control count says in how many pairings with the empty strains this scFv gave a signal, with their mean in brackets.

From the AlphaSeq antibody data of Engelhart et al. 2022 (doi:10.1038/s41597-022-01779-4), copy in the FLAb collection.